Results reported in patent US8969352B2, “Substituted 2-azabicycles and their use as orexin receptor modulators” (Janssen Pharmaceutica NV, priority 2013, dated 2015).

Amino acid sequences for entries named in this document (tags omitted).
UniProt O43614, whole entry: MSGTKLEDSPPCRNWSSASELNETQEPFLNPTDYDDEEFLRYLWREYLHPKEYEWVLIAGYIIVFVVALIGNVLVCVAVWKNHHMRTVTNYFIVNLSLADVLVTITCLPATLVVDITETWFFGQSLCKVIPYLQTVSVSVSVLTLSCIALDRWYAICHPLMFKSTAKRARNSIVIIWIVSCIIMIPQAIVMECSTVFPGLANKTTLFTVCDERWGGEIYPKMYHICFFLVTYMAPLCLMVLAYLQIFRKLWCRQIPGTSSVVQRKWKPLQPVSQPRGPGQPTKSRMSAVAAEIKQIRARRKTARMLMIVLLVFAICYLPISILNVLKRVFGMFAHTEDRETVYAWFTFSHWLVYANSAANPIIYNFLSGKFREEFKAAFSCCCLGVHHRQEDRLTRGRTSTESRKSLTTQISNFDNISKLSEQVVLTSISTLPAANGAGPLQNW

Legend:
human orexin 2 receptor = human orexin 2 receptor (Homo sapiens (Human), UniProt O43614); assay: Human orexin 2 receptor radioligand binding; details: HEK293 stably expressing human orexin 2 receptor; [3H]-EMPA competitive binding, apparent Ki; read-out: hOX2 Ki
Procedure: Human Orexin 2 Receptor Radioligand Binding Studies
(§1) After centrifugation (2K×G, 5 min at 4° C.), the supernatant was aspirated and the pellets frozen and stored at −80° C. […] Each cell pellet from a 15 cm plate was resuspended in 10 mL, stored on ice, and homogenized for 45 sec just prior to addition to the reactions. Competition binding experiments in 96 well polypropylene plates were performed using [^3H]-EMPA (Moraveck Corporation, specific activity=29.6 Ci/mmol), diluted to a 5 nM concentration in PBS (2 nM final concentration). […] The final concentration of DMSO in the reactions is equal to or less than 0.1%. Total and nonspecific binding was determined in the absence and presence of 10 μM almorexant. The total volume of each reaction is 200 μL (20 μL of diluted compounds, 80 μL of [^3H]-EMPA diluted in PBS and 100 μL of the cell suspension). […] The plates were washed 3 times by aspirating 30 ml PBS through the plates. Plates were dried in 55° C. oven for 60 min, scintillation fluid was added, and the radioactivity was counted on a Topcount (Packard).

human orexin 1 receptor = human orexin 1 receptor (Homo sapiens, UniProt O43613); assay: Human orexin 1 receptor radioligand binding; details: CHO cells stably expressing human orexin 1 receptor; competitive radioligand binding, apparent Ki; read-out: hOX1 Ki
Procedure: (§2) Rat and Human Orexin 1 Receptor Radioligand Binding Studies
as §1, with “sec” for “sec just”, “reactions.” for “reactions. Competition binding experiments in 96 well polypropylene plates were performed using [^3H]-EMPA (Moraveck Corporation, specific activity=29.6 Ci/mmol), diluted to a 5 nM concentration in PBS (2 nM final concentration).”, “[^3H]-(1-(5-(2-fluoro-phenyl)-2-methyl-thiazol-4-yl)-1-((S)-2-(5-phenyl-(1,3,4)oxadiazol-2-ylmethyl)-pyrrolidin-1-yl)-methanone)” for “[^3H]-EMPA”

rat orexin 1 receptor = rat orexin 1 receptor (Rattus norvegicus, UniProt P56718); assay: Rat orexin 1 receptor radioligand binding
Procedure: as §2
as §1, with “sec” for “sec just”, “reactions.” for “reactions. Competition binding experiments in 96 well polypropylene plates were performed using [^3H]-EMPA (Moraveck Corporation, specific activity=29.6 Ci/mmol), diluted to a 5 nM concentration in PBS (2 nM final concentration).”, “[^3H]-(1-(5-(2-fluoro-phenyl)-2-methyl-thiazol-4-yl)-1-((S)-2-(5-phenyl-(1,3,4)oxadiazol-2-ylmethyl)-pyrrolidin-1-yl)-methanone)” for “[^3H]-EMPA”

[1] = HEK293 cells stably expressing rat orexin 1 receptor, competitive radioligand binding, apparent Ki, read-out: rOX1 Ki

SMILES	Ki (human orexin 2 receptor) [nM]	Ki (human orexin 1 receptor) [nM]	Ki (rat orexin 1 receptor; [1]) [nM]	Ki (rat orexin 1 receptor) [nM]
O=C(c1c(F)cccc1-n1nccn1)N1C[C@H]2C[C@@H](Oc3ccc(C(F)(F)F)cn3)[C@@H]1C2 [Example 46, (2-fluoro-6-(2H-1,2,3-triazol-2-yl)phenyl)((1S,4R,6R)-6-((5-(trifluoromethyl)pyridin-2-yl)oxy)-2-azabicyclo[2.2.1]heptan-2-yl)methanone]	650			
Cc1ccc(-n2nccn2)c(C(=O)N2CC3CC(Oc4ccc(C(F)(F)F)cn4)C2C3)n1 [Example 25, (6-methyl-3-(2H-1,2,3-triazol-2-yl)pyridin-2-yl)((1S,4R,6R)-6-((5-(trifluoromethyl)pyridin-2-yl)oxy)-2-azabicyclo[2.2.1]heptan-2-yl)methanone]		15		
O=C(c1ccccc1-n1nccn1)N1C[C@H]2C[C@@H](Oc3ccc(C(F)(F)F)cn3)[C@@H]1C2 [Example 36, (2-(2H-1,2,3-triazol-2-yl)phenyl)((1S,4R,6R)-6-((5-(trifluoromethyl)pyridin-2-yl)oxy)-2-azabicyclo[2.2.1]heptan-2-yl)methanone]	322			
Cc1cnc(C(=O)N2C[C@H]3C[C@@H](Oc4ccc(C(F)(F)F)cn4)[C@@H]2C3)c(-n2nccn2)c1 [Example 28, (5-methyl-3-(2H-1,2,3-triazol-2-yl)pyridin-2-yl)((1S,4R,6R)-6-((5-(trifluoromethyl)pyridin-2-yl)oxy)-2-azabicyclo[2.2.1]heptan-2-yl)methanone]	1600	21	32	
O=C(c1cc(F)ccc1-n1nccn1)N1C[C@H]2C[C@@H](Oc3ccc(C(F)(F)F)cn3)[C@@H]1C2 [Example 43, (5-fluoro-2-(2H-1,2,3-triazol-2-yl)phenyl)((1S,4R,6R)-6-((5-(trifluoromethyl)pyridin-2-yl)oxy)-2-azabicyclo[2.2.1]heptan-2-yl)methanone]		8	16	
O=C(c1cccc(F)c1-c1ncccn1)N1C[C@H]2C[C@@H](Oc3ccc(C(F)(F)F)cn3)[C@@H]1C2 [Example 27, (3-fluoro-2-(pyrimidin-2-yl)phenyl)((1S,4R,6R)-6-((5-(trifluoromethyl)pyridin-2-yl)oxy)-2-azabicyclo[2.2.1]heptan-2-yl)methanone]	767	4	4	
Cc1ccc(-n2nccn2)c(C(=O)N2CC3CC(Oc4ccc(C(F)(F)F)cn4)C2C3)n1 (single isomer, unassigned) [Example 24]		16		
O=C(c1cc(F)ccc1-n1nccn1)N1CC2CC(Oc3ccc(C(F)(F)F)cn3)C1C2 (racemic) [Example 14, (R/S)-(5-fluoro-2-(2H-1,2,3-triazol-2-yl)phenyl)(6-((5-(trifluoromethyl)pyridin-2-yl)oxy)-2-azabicyclo[2.2.1]heptan-2-yl)methanone]			16	
O=C(c1cccc(F)c1-n1nccn1)N1C[C@H]2C[C@@H](Oc3ccc(C(F)(F)F)cn3)[C@@H]1C2 [Example 35, (3-fluoro-2-(2H-1,2,3-triazol-2-yl)phenyl)((1S,4R,6R)-6-((5-(trifluoromethyl)pyridin-2-yl)oxy)-2-azabicyclo[2.2.1]heptan-2-yl)methanone]		3		
O=C(c1ccc(F)cc1-c1ncccn1)N1C[C@H]2C[C@@H](Oc3ccc(C(F)(F)F)cn3)[C@@H]1C2 [Example 26, (4-fluoro-2-(pyrimidin-2-yl)phenyl)((1S,4R,6R)-6-((5-(trifluoromethyl)pyridin-2-yl)oxy)-2-azabicyclo[2.2.1]heptan-2-yl)methanone]			12	
Cc1cccc(C(=O)N2CC3CC(Oc4ccc(C(F)(F)F)cn4)C2C3)c1-n1nccn1 (racemic) [Example 17, (R/S)-(3-methyl-2-(2H-1,2,3-triazol-2-yl)phenyl)(6-((5-(trifluoromethyl)pyridin-2-yl)oxy)-2-azabicyclo[2.2.1]heptan-2-yl)methanone]		3		8

Where two headings read alike, the source gives them in different places.
